# Measured values taken from ChEMBL document CHEMBL2163228, “Structure-based discovery of substituted 4,5'-bithiazoles as novel DNA gyrase inhibitors” (J Med Chem, 2012).
# Tested on: Staphylococcus aureus
# Conditions: ATCC 29213
sequence,measurement,value
GENTAMICIN,MIC,0.5 µg/mL
